For data set [1] the following is noted: mouse, high-resolution mass spectrometry.
For data set [2], the target named is T1, recombinant human androgen receptor (AR) protein (Homo sapiens, UniProt P10275).
T1 construct: RPB252Hu03, Ile673-His918 with N-terminal His Tag; His tag (N); purchased CLOUD-CLONE CORP; WUHAN RPB252Hu03
Description: Small molecule-protein affinity (protein-ligand coupling) assay, Biacore T200 SPR. Type of data set: binding.

Protein sequences, listed by entry. Tags and fused reporters are not part of them. Residues count along the entry.
UniProt P10275, 673-918: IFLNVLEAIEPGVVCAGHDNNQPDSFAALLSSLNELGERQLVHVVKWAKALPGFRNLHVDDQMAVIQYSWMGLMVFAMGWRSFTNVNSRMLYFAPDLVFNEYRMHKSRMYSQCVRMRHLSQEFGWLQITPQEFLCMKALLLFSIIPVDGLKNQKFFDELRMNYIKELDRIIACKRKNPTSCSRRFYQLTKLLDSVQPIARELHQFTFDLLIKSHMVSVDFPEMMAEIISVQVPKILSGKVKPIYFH

As to `C[C@@](COc1ccc(C#N)cc1)(OC(=O)CCCC[C@@H]1CCSS1)C(=O)Nc1cnc(C#N)c(C(F)(F)F)c1`, the “metabolites detected after administration (identity)” value in data set [1] is recorded as “corresponded to the compound of Example 3”.

For the molecule `C[C@@](COc1ccc(C#N)cc1)(OC(=O)c1ccccc1)C(=O)Nc1cnc(C#N)c(C(F)(F)F)c1` [Example 26, (S)-1-((6-cyano-5-(trifluoromethyl)pyridin-3-yl)amino)-3-(4-cyanophenoxy)-2-methyl-1-oxopropan-2-yl benzoate], in data set [2], the Kd (commonly the concentration at which binding is half-saturated) turned out to be 55 µM.

(Values after EP4810484A1, “NEUROACTIVE ANDROGEN RECEPTOR MODULATOR AND USE THEREOF” (Endochem Pharmaceuticals (Beijing) Co., Ltd., priority 2023, dated 2025).)
